In PMC4380445:

Molecular target: mouse monoclonal antibody 4G8 (mouse)
Assay: SPR; On-Chip two-step: 60-fold dilution of 4G8 captured for 120 s on immobilised Abeta1-42 oligomers (CM5), then 1 uM SpA injected for 180 s; HBS-EP pH 7.4

Substance: Protein A from Staphylococcus aureus (from UniProt P38507 37-477) (natural protein)
- Step 2/Step 1 RU ratio: 0.178
- stoichiometry N: 0.636
